Experimental data published in patent US8937167B2 (Washington University, priority 2009, dated 2015).

Chains of the proteins cited; added tags and fusions are not shown.
UniProt Q1R2J4, entry or part of it: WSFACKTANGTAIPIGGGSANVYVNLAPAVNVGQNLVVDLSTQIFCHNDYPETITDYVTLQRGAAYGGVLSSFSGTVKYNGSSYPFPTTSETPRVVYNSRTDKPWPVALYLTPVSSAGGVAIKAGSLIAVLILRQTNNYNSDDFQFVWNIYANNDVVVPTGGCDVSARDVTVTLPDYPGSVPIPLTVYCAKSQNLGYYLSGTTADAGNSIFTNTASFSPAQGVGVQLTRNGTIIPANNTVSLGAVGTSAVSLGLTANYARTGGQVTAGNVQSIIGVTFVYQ

Target: FimH (Escherichia coli, UniProt Q1R2J4)
Conditions: read-out: HA 50% titer; Table 13; Example 6 numbering
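Further: hemagglutination inhibition of guinea pig erythrocytes agglutinated by type 1 piliated uropathogenic E. coli via FimH mannose binding, quantified through serial dilutions of compound.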

`CCCCO[C@H]1O[C@H](CO)[C@@H](O)[C@H](O)[C@@H]1O` [Butylman] was tested, and the pEC50 was 3.90.

pEC50: −log10 of the molar value.
